Laboratory results as given in patent publication US5466700A (priority 1993, dated 1995).

Test system: patients
Conditions: small oral dose, preoperative

CN1C(=O)C(O)N=C(c2ccccc2)c2cc(Cl)ccc21 (stereo not shown)
loss of consciousness with oral benzodiazepine premedication: did not lead to loss of consciousness
